Assay: Selectivity ratio of IC50 for inhibition of human wild type partial length EGFR (R669 to V1011 residues) expressed in bacterial expression system to IC50 for human partial length EGFR (R669 to V1011 residues) L858R/T790M mutant expressed in mammalian expression system

`C=CC(=O)Nc1cccc(Nc2nc(Nc3ccc(N4CCN(C)CC4)cc3)nc3ccc(F)cc23)c1` gave a Ratio IC50 of 368.

Source: ChEMBL document CHEMBL5380860, “Design, Synthesis, and Antitumor Activity of Potent and Selective EGFR L858R/T790M Inhibitors and Identification of a Combination Therapy to Overcome Acquired Resistance in Models of Non-small-cell Lung Cancer” (J Med Chem, 2023)
